Our source for the Ratio values is ChEMBL document CHEMBL1123058, “Synthesis of some quaternary ammonium alkylating agents and their effects on soman-inhibited acetylcholinesterase” (1985).

A short description of the assay: Ratio of control/treated value of the compound.
For the compound `CC1C=CN(C)c2c1c1c(n2C)CCC1OCCCl` (stereo unspecified), the Ratio came to 0.81.
Take `C[n+]1ccccc1CCN1C(=O)CCC1=O`: the Ratio stood at 1.13.
As for `CC[N+](C)(CC)CCc1ccncc1`, the figure is below 2.09; as for `CCN(CC)CCc1cccc[n+]1C`, 1.07.
In the case of `CC[N+](C)(CC)CCc1ccccn1`, the Ratio was found to be 1.6.
The result for `CC[N+](C)(CC)CC(=O)CCN1C(=O)CCC1=O` reads 1.11; that for `C[n+]1ccccc1CCC(O)CCl` (stereo unspecified), below 1.34.
As to `C[N+](C)(C)CCCCl`, the Ratio worked out at 1.19.
With `C[n+]1ccc(CCN2C(=O)CCC2=O)cc1`, the Ratio was 1.02.
The result for `C[n+]1ccccc1CCl` reads below 1.3; that for `BrCCCCCC[n+]1ccccc1`, 0.98.
